Laboratory results taken from patent US20220265606A1, “ANTICANCER AGENTS” (The Texas A&M University System, priority 2019, published 2022).

Legend:
[1] = system: 15037, 14015s and U87-MG cells; assay: Ki67 immunofluorescence; format: cell-based, human; details: 24 hours
Procedure: Immunofluorescence. […] Cells were then fixed with 37% formalin, blocked, treated with fluorescent Ki67 primary antibody for 24 hr. […] Finally, cells were observed using a Zeiss confocal fluorescence microscope.
Glioblastoma cells were treated with different concentrations of 4-Cl (FIG. 6A), 3-CF3-4-Cl (FIG. 6B), and 2-OH-4-Br (FIG. 6C) and effects on induction of Annexin V were determined as outlined herein. Glioblastoma cells were treated with different concentrations of NR4A2 antagonists and whole cell lysates were analyzed for markers of apoptosis by western blots.

[2] = system: 15037 and 14015s cells; assay: Boyden chamber invasion assay; details: 12.5 μM (3-CF3-4-Cl and 2-OH-4-Br) or 20 μM (C-DIM 12)

Clc1ccc(C(c2c[nH]c3ccccc23)c2c[nH]c3ccccc23)cc1 [CDIM-4-Cl]
Ki67 (proliferation marker) staining [1]: decreased Ki67
Cell invasion, Boyden chamber [2]: required higher concentrations
